The values below come from PubChem BioAssay AID485395 (ICCB-Longwood Screening Facility, Harvard Medical School, 2010).

Structures are written as SMILES. This is a selection; strong and weak results do not stand in their true shares. Some tests of the compounds listed are not included; inactive here does not mean inactive elsewhere. Activity calls are given as the source filed them. Cut-off read from the data, not from the text of the source: active = inhibition above about 25% (passing the limit was not always enough); inactive = the rest.

One may read the inhibition as the drop in the measured response relative to a control, in per cent.

This assay has as its system replicative DNA helicase (DnaC/DnaB), Staphylococcus aureus. Kind of assay: inhibitors of S. aureus replicative helicase, primary screen, biochemical, fluorescence unwinding readout (AID 485395).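 Note: 0% = mean of negative control wells and 100% = mean of positive control wells.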 The following applies: purified S. aureus helicase, fluorescence unwinding assay; active compounds read high; concentration not given here.
In the case of `COc1ccc(OC)c(C=C(C#N)C#N)c1`, the inhibition is inactive: -112%.
The same measure for `CN(C)c1ccc(C(=O)NCC2(N(C)C)CCCCC2)cc1`: inactive: 7%.
The same measure for `O=C(NCC1(N2CCOCC2)CCCCC1)c1cnc(Cl)c(Cl)c1`: inactive: 6%; for `O=C(NCC1(N2CCCCC2)CCCCC1)c1ccc2c(c1)OCCO2`: inactive: 7%.
For `CN1C2CCC1CC(OC(=O)C(O)(c1ccccc1)c1ccccc1)C2` (stereo not drawn), the inhibition was inactive: -1%.
The result for `O=C(OC1CN2CCC1CC2)C(CO)(c1ccccc1)c1ccccc1` (stereo not drawn) reads inactive: 7%; that for `CN(C)C1(CNC(=O)c2ccncc2)CCCCC1`, inactive: 9%; that for `N#CC(C#N)=Cc1ccccc1`, inactive: 8%.
